# OPERA 2.9 data: logP (octanol/water) values

Data: OPERA 2.9 data sets, kmansouri/OPERA on GitHub.

logP is the log10 of the octanol-water partition coefficient; higher is more lipophilic.

C=Cc1cccc(C=C)c1 [1,3-Diethenylbenzene] has logP (octanol/water) 4.15.
C/C(C#C[C@]1(O)[C@H](C)C[C@@H](O)CC1(C)C)=C\CO has logP (octanol/water) 0.5.
Br.Nc1c(Br)cc(Br)cc1CN[C@H]1CC[C@H](O)CC1 has logP (octanol/water) 2.8.
O=C1OC2(c3ccc([O-])cc3Oc3cc([O-])ccc32)c2ccccc21.[Na+].[Na+] [Fluorescein sodium] has logP (octanol/water) 0.67.
N=c1nc(O)n([C@@H]2O[C@H](CO)C[C@@H]2F)cc1F has logP (octanol/water) -0.92.
NC(=O)NC1NC(=O)NC1=O (stereo unspecified) [Allantoin] has logP (octanol/water) -2.26.
CCOC(=O)/C=C/C(=O)OCC [(2E)-2-Butenedioic acid diethyl ester] has logP (octanol/water) 2.12.
C[C@]12C=CC(=O)C=C1CC[C@H]1[C@@H]3CC[C@](O)(C(=O)CO)[C@@]3(C)C[C@H](O)[C@@]12F [Isoflupredone] has logP (octanol/water) 1.51.
CCCCCOCCCCC [Pentyl ether] has logP (octanol/water) 4.04.
CCO[Si](CCCS)(OCC)OCC [3-(Triethoxysilyl)propane-1-thiol] has logP (octanol/water) 2.7.
C=CC(=O)OCCCCCCCCCCOC(=O)C=C [1,10-Decanediyl diacrylate] has logP (octanol/water) 4.9.
CCN(Cc1ccccc1)c1ccc(/C=C(\C#N)C(=O)OCC[N+](C)(C)C)cc1.[Cl-] has logP (octanol/water) -0.3.
C[N+](C)(C)C12CC3CC(CC(C3)C1)C2.C[N+](C)(C)C12CC3CC(CC(C3)C1)C2.O=S(=O)([O-])[O-] has logP (octanol/water) -2.35.
CC1=NN(c2cccc(S(=O)(=O)[O-])c2)C(=N)C1/N=N/c1ccc(S(=O)(=O)c2ccc(/N=N/C3C(=N)N(c4cccc(S(=O)(=O)[O-])c4)N=C3C)cc2)cc1.[Na+].[Na+] (stereo partly drawn) has logP (octanol/water) 0.58.
O=c1ccnc2n1CCCC2 [6,7,8,9-Tetrahydro-4H-pyrido[1,2-alpha]pyrimidin-4-one] has logP (octanol/water) -0.14.
Clc1ccc(-c2c(Cl)c(Cl)cc(Cl)c2Cl)c(Cl)c1Cl [2,2',3,3',4,5',6'-Heptachlorobiphenyl] has logP (octanol/water) 7.08.
Cl.N=C(N)c1ccccc1 [Benzenecarboximidamide, monohydrochloride] has logP (octanol/water) 0.65.
COc1ccccc1N1CCN(CCNC(=O)C2CCCCC2)CC1 has logP (octanol/water) 2.8.
COC1CCC2(CC1)NC(=O)NC2=O.[HH].[Na+] (stereo unspecified) [8-Methoxy-1,3-diazaspiro(4.5)decane-2,4-dione sodium salt] has logP (octanol/water) 0.35.
Nc1cnn(CCO)c1N.O=S(=O)(O)O [4,5-Diamino-1-(2-hydroxyethyl)pyrazole sulfate] has logP (octanol/water) -1.75.
C[C@]1(Cn2ccnn2)[C@H](C(=O)O)N2C(=O)C[C@H]2S1(=O)=O [Tazobactam] has logP (octanol/water) -2.7.
CC(C)COC(=O)[C@@H](C)O [Propanoic acid, 2-hydroxy-, 2-methylpropyl ester, (2R)-] has logP (octanol/water) 1.35.
CC1(CCl)CO1 (stereo unspecified) [2-(Chloromethyl)-2-methyloxirane] has logP (octanol/water) 0.81.
CCCCCCCCC=CCCCCCCCCN(CCO)CCO [Ethanol, 2,2'-(9-octadecen-1-ylimino)bis-] has logP (octanol/water) 3.4.
O=C1c2ccccc2C(=O)c2cc(Cl)ccc21 [2-Chloroanthraquinone] has logP (octanol/water) 4.46.
C=CC1CC2C=CC1C2 (stereo unspecified) [5-Vinyl-2-norbornene] has logP (octanol/water) 3.39.
O=C(ON=C1C=CC(=NOC(=O)c2ccccc2)C=C1)c1ccccc1 [2,5-Cyclohexadiene-1,4-dione, 1,4-bis(O-benzoyloxime)] has logP (octanol/water) 4.43.
O=C1c2ccccc2C(=O)c2c1ccc(O)c2O [Alizarin] has logP (octanol/water) 2.91.
CC1=NN(c2ccc(S(=O)(=O)[O-])cc2)C(=O)C1/N=N/c1ccc(C)c(S(=O)(=O)Nc2ccccc2)c1.[Na+] (stereo partly drawn) has logP (octanol/water) -0.8.
CCn1c(O)c(/N=N/c2cc(Nc3nc(Cl)nc(Nc4ccc(S(=O)(=O)[O-])c(Nc5nc(N)nc(Cl)n5)c4)n3)c(S(=O)(=O)[O-])cc2S(=O)(=O)[O-])c(C)c(C(N)=O)c1=O.[Na+].[Na+].[Na+] has logP (octanol/water) -2.84.
COc1cc(S(=O)(=O)[O-])c(C)cc1NC(=O)C(/N=N/c1ccc(-c2nc3ccc(C)c(S(=O)(=O)[O-])c3s2)cc1)C(C)=O.[NH4+].[Na+] (stereo partly drawn) [C.I. Direct Yellow 157] has logP (octanol/water) -3.3.
OC1=NC(Oc2c3ccccc3cc3ccccc23)C1 (stereo unspecified) has logP (octanol/water) 3.08.
Cc1cc(S(=O)(=O)O)ccc1N [Benzenesulfonic acid, 4-amino-3-methyl-] has logP (octanol/water) 0.076.
OC1CCCC1 [Cyclopentanol] has logP (octanol/water) 0.71.
COc1ccccc1N1CCN(CCCCc2ccc(F)cc2)CC1 [1-[4-(4-Fluorophenyl)butyl]-4-(2-methoxyphenyl)-piperazine] has logP (octanol/water) 4.8.
CCCCNCCO [Ethanol, 2-(butylamino)-] has logP (octanol/water) 0.64.
CN(c1ccccc1)c1nc(Cl)nc(Nc2cc(S(=O)(=O)[O-])cc3cc(S(=O)(=O)[O-])c(/N=N/c4ccccc4S(=O)(=O)[O-])c(O)c23)n1.[Na+].[Na+].[Na+] has logP (octanol/water) -3.26.
CCCCCCCCCCCCCCCCCCCCO [1-Eicosanol] has logP (octanol/water) 8.025.
Clc1ccccc1CN1CCc2sccc2C1 [Ticlopidine] has logP (octanol/water) 2.9.
CCCCCCCCCc1nc(N)nc(N)n1 [6-Nonyl-1,3,5-triazine-2,4-diamine] has logP (octanol/water) 1.38.
C[Si](C)(C)O[Si](C)(C)O[Si](C)(C)O[Si](C)(C)O[Si](C)(C)O[Si](C)(C)O[Si](C)(C)O[Si](C)(C)O[Si](C)(C)C [Eicosamethylnonasiloxane] has logP (octanol/water) 8.3.
CC(C#N)(CCC(=O)O)N=NC(C)(C#N)CCC(=O)O (stereo unspecified) [4,4'-Diazene-1,2-diylbis(4-cyanopentanoic acid)] has logP (octanol/water) 0.8.
CCCC[P+](CCCC)(CCCC)CCCC.[Cl-] [Tetrabutylphosphonium chloride] has logP (octanol/water) -0.04.
CC(C)c1nc(N(C)S(C)(=O)=O)nc(-c2ccc(F)cc2)c1/C=C/[C@@H](O)C[C@@H](O)CC(=O)O [Rosuvastatin] has logP (octanol/water) -0.88.
C=CS(=O)(=O)[O-].[Na+] [Sodium ethenesulfonate] has logP (octanol/water) -1.01.
O=C([O-])c1cc2ccccc2c(/N=N/c2ccc3ccccc3c2S(=O)(=O)[O-])c1[O-].[H+].[Mn+2] [C.I. Pigment Red 63:2] has logP (octanol/water) 2.5.
O=C=Nc1ccc(Cc2ccc(N=C=O)cc2)cc1 [4,4'-Diphenylmethane diisocyanate] has logP (octanol/water) 4.51.
NNc1c(Cl)cc(Cl)cc1Cl [Hydrazine, (2,4,6-trichlorophenyl)-] has logP (octanol/water) 2.23.
CCCCc1cc(C)c(Nc2ccc(Nc3c(C)cc(CCCC)c(S(=O)(=O)[O-])c3Br)c3c2C(=O)c2ccccc2C3=O)c(Br)c1S(=O)(=O)[O-].[Na+].[Na+] has logP (octanol/water) 2.55.

A selection of 4 entries from above:

{"smiles": "C=Cc1cccc(C=C)c1", "name": "1,3-Diethenylbenzene", "logP (octanol/water)": "4.15"}
{"smiles": "Clc1ccc(-c2c(Cl)c(Cl)cc(Cl)c2Cl)c(Cl)c1Cl", "name": "2,2',3,3',4,5',6'-Heptachlorobiphenyl", "logP (octanol/water)": "7.08"}
{"smiles": "COc1ccccc1N1CCN(CCNC(=O)C2CCCCC2)CC1", "logP (octanol/water)": "2.8"}
{"smiles": "O=C1OC2(c3ccc([O-])cc3Oc3cc([O-])ccc32)c2ccccc21.[Na+].[Na+]", "name": "Fluorescein sodium", "logP (octanol/water)": "0.67"}

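The OPERA project collected these measurements from public sources as training and test data for property models. The files give a single number for a compound and property, which may rest on several reports. Conditions of the individual experiments are not part of the data. The measured form (salt, isomer or mixture) is not always the one drawn. Some upstream entries may be estimates or bounds without being marked so.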